## Measured affinities in a library of Ab-14 light chain variants

The measurements come from Li et al. 2023 (doi:10.1038/s41467-023-39022-2) through the FLAb antibody collection.

Binding partner: SARS-CoV-2 spike HR2 peptide, sequence PDVDLGDISGINAS.

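Phage display of a naive human antibody library on the peptide gave the parent. This is the validation round: designs drawn from the data on random variants, tested in the same kind of assay. Several design methods are mixed in this list. AlphaSeq pools MATa yeast showing the antibodies with MATalpha yeast showing the peptide. Binding brings cells together so that they mate, and sequencing counts the barcode pairs among the diploids. The ratio of observed to expected reads was calibrated, replicate by replicate, on BCL2-family standards whose Kd was known from biolayer interferometry. Mating was done six times.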

Parent scFv Ab-14: VH joined to VL by three GGGGS repeats. Changes lie in the light chain CDRs alone.
VH: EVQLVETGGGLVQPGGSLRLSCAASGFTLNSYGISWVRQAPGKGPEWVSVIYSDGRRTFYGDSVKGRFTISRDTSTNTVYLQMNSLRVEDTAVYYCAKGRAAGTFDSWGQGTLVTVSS
VL: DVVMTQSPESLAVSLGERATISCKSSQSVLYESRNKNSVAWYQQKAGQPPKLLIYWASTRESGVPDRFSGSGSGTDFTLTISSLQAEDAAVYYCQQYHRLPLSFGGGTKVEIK

Sequences are complete VL domains. Each Kd is an estimate from the mating assay, the geometric mean of the replicates in which the pair was seen; lower is stronger. "nd" means that the variant was in the library but no mating with the target was seen in any replicate; the authors take this as a sign of poor binding, and no number exists. The parent sequence was in this pool as ten entries: three were never detected, three once, and four in most replicates, with averages from 2.2 nM to 240 nM.

VL,Kd,detected
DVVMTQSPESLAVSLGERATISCKLYQSEWYESRMCNNVAWYQQKAGQPPKLLIYNASVRESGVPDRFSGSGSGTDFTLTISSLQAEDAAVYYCQQYHRLPLSFGGGTKVEIK,15 nM,6/6
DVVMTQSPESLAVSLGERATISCKISQSVLYESRNKNSVAWYQQKAGQPPKLLIYGASTRESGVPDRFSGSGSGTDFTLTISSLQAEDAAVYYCQQYHRLPNSFGGGTKVEIK,330 nM,6/6
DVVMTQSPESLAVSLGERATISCKLSQSVLYESRNKNSVAWYQQKAGQPPKLLIYNGSTRESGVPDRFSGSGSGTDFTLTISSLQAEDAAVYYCQQYHRLPLSFGGGTKVEIK,240 pM,6/6
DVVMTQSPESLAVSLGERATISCSFPSEMDQQQFQVNSVAWYQQKAGQPPKLLIYGEQHTARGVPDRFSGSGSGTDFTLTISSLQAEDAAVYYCQQYGRLPLSFGGGTKVEIK,nd,0/6
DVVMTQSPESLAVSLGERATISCHMSALTLGGMRARNSVAWYQQKAGQPPKLLIYQMTTRENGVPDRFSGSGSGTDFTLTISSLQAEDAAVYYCQQYDRLPLAFGGGTKVEIK,5.6 nM,6/6
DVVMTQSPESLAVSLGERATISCIVSQLMLWGMHAKNSIAWYQQKAGQPPKLLIYEAVTRLNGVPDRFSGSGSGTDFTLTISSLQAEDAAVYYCQQYDRLPLFFGGGTKVEIK,nd,0/6
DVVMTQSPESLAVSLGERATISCKLSQSVLYMSRNKNSVAWYQQKAGQPPKLLIYNASTRESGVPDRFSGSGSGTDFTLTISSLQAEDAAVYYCQQYHRLPLSFGGGTKVEIK,1.5 nM,6/6
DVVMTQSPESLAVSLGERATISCKVSEFMRGLMMRKDSIAWYQQKAGQPPKLLIYDNVTRENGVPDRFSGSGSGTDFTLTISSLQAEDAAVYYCQQYDRLPLSFGGGTKVEIK,5.7 µM,3/6
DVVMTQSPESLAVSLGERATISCKLMQSTLYESRNPNSVAWYQQKAGQPPKLLIYWASTRESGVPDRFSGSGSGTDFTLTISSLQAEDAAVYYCQQYHRLPLSFGGGTKVEIK,nd,0/6
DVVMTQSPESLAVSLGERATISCTISQMFLGESRNRNSVAWYQQKAGQPPKLLIYQASTRESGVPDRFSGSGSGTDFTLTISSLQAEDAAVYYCQCYDRLPLSFGGGTKVEIK,7.0 nM,6/6

Continued, with the values leading:

Kd,detected,VL
6.2 nM,6/6,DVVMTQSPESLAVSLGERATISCKLEDQMQTSFASDNSVAWYQQKAGQPPKLLIYDTNMGHEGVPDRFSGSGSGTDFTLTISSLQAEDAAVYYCQQYNRLPLVFGGGTKVEIK
760 pM,6/6,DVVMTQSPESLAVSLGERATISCHLSQSVLMESRNKNSVAWYQQKAGQPPKLLIYEASTRESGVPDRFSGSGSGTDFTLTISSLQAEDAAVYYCQQYHRLPLSFGGGTKVEIK
nd,0/6,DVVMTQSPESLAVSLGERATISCTISQMTSLFSQSINNVAWYQQKAGQPPKLLIYEMSTREPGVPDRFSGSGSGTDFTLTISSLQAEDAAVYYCQQYDRLPLAFGGGTKVEIK
1.7 nM,6/6,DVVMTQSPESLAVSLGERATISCKSSCSERYDSPNSNSVAWYQQKAGQPPKLLIYNASTREMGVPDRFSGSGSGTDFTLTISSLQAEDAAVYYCQQYHRLPLSFGGGTKVEIK
18 nM,1/6,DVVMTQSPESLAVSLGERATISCKSSQSVLYESNNKNSVAWYQQKAGQPPKLLIYWASIHESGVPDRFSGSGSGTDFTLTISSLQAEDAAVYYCQQYHRLPLSFGGGTKVEIK
750 pM,6/6,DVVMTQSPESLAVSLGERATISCKLQQSMLYESRNKNSVAWYQQKAGQPPKLLIYEASTRESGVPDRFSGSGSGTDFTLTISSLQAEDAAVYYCQQYHRLPLSFGGGTKVEIK
nd,0/6,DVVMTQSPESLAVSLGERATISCQSSQSVLYESHNKNSVAWYQQKAGQPPKLLIYWASTRESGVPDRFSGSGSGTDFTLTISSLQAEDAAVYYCQQYHRLPLSFGGGTKVEIK
700 pM,6/6,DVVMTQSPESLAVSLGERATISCALSQSMDMTSRMKNSVAWYQQKAGQPPKLLIYDLSTRENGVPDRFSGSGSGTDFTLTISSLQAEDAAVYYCQQYHRLPLSFGGGTKVEIK
4.7 nM,6/6,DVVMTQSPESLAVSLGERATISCHVAMLLGQQHGKQANIAWYQQKAGQPPKLLIYEADELMTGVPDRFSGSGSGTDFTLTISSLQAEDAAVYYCQQYYTLPLAFGGGTKVEIK
860 pM,6/6,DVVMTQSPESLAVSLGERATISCKVSNQVDGEDRNKNAVAWYQQKAGQPPKLLIYDASTRESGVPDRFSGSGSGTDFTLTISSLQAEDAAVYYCQQYHRLPLSFGGGTKVEIK
870 pM,6/6,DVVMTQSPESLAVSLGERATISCKLSQSTLYDSRNKNSVAWYQQKAGQPPKLLIYNASTRESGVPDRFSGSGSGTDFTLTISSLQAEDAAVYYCQQYHRLPLSFGGGTKVEIK

Again, the first 3 entries without any signal:

VL,Kd,detected
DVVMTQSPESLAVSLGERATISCSFPSEMDQQQFQVNSVAWYQQKAGQPPKLLIYGEQHTARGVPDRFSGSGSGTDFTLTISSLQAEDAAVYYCQQYGRLPLSFGGGTKVEIK,nd,0/6
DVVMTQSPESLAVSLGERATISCIVSQLMLWGMHAKNSIAWYQQKAGQPPKLLIYEAVTRLNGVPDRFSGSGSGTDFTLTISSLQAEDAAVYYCQQYDRLPLFFGGGTKVEIK,nd,0/6
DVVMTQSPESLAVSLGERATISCKLMQSTLYESRNPNSVAWYQQKAGQPPKLLIYWASTRESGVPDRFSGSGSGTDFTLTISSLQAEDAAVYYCQQYHRLPLSFGGGTKVEIK,nd,0/6

In the paper, a design with two or fewer of six values counts as a poor binder. Three control strains display no target. For all light chain designs, 4% of the pairings with them gave a signal, with a median of 430 nM and one signal in twenty below 38 nM, so weak values seen in few replicates may be background. A sequence measured in both rounds can read differently, since the two assays cover different ranges.